Legend:
CRF2R = molecular target: T1, CRF2R (Homo sapiens, UniProt Q13324); assay: CRF2R agonist activation (EC50 / Emax), called comparative CRF binding; format: cell-based; conditions: for Emax: read-out: CRF2R Emax
T1 sequence (Q13324 1-411): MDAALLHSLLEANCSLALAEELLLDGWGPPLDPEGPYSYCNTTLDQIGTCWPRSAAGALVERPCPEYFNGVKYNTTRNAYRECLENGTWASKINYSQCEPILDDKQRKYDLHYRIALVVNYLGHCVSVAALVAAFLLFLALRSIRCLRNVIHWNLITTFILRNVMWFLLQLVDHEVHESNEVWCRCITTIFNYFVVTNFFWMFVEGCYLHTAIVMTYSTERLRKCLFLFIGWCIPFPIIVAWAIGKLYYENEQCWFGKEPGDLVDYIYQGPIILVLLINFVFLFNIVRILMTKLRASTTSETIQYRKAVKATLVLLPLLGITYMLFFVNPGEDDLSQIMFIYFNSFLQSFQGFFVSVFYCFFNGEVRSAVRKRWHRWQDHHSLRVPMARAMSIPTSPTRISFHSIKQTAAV
Procedure, shortened: (§1)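 CRFR-expressing cells + peptide vs vehicle; read-out cAMP (lysate assay) or CRE-linked reporter expression (luciferase, CAT, fluorescent protein, alkaline phosphatase, etc.). Signal compared against vehicle-treated cells.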

CRF1R = molecular target: T2, CRF1R (Homo sapiens, UniProt P34998); assay: CRF1R agonist activation (EC50 / Emax), called comparative CRF binding; format: cell-based; conditions: for Emax: read-out: CRF1R Emax; for EC50: CRF1R EC50
T2 sequence (P34998 24-415): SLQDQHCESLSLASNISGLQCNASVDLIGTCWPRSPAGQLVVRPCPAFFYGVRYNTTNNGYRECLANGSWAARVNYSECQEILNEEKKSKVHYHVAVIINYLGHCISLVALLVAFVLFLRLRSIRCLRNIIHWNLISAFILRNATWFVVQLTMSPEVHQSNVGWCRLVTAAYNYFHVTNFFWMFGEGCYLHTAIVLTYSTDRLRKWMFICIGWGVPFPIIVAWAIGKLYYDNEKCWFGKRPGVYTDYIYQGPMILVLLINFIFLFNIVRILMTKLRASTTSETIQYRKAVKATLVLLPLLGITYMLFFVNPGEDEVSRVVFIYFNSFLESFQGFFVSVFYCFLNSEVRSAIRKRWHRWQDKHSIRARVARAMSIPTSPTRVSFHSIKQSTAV
Procedure, shortened: as §1

Compound `CC[C@H](C)[C@H](NC(=O)[C@H](CCC(=O)O)NC(=O)[C@@H](NC(=O)[C@H](CCSC)NC(=O)[C@H](CCCCN)NC(=O)[C@H](CCCNC(=N)N)NC(=O)[C@H](CC(C)C)NC(=O)[C@H](CC(C)C)NC(=O)[C@H](CCC(N)=O)NC(=O)[C@H](Cc1ccccc1)NC(=O)[C@@H]1CCCN1C(=O)[C@H](CC(C)C)NC(=O)[C@H](CC(=O)O)NC(=O)[C@@H](NC(=O)[C@H](CO)NC(=O)[C@@H](NC(=O)[C@@H]1CCCN1C(=O)[C@@H]1CCCN1C(=O)CNC(=O)[C@@H]1CCC(=O)N1)[C@@H](C)CC)[C@@H](C)CC)[C@@H](C)CC)C(=O)N[C@@H](CCC(=O)O)C(=O)N[C@@H](CCCCN)C(=O)N[C@@H](CCC(N)=O)C(=O)N[C@@H](CCC(=O)O)C(=O)N[C@@H](CCCCN)C(=O)N[C@@H](CCC(=O)O)C(=O)N[C@@H](CCCCN)C(=O)N[C@@H](CCC(N)=O)C(=O)N[C@@H](CCC(N)=O)C(=O)N[C@@H](C)C(=O)N[C@H](C(=O)N[C@H](C(=O)N[C@@H](CC(N)=O)C(=O)N[C@@H](CCCNC(=N)N)C(=O)N[C@@H](CC(C)C)C(=O)N[C@@H](CC(C)C)C(=O)N[C@@H](CC(C)C)C(=O)N[C@@H](CC(=O)O)C(=O)N[C@@H](CCCNC(=N)N)C(=O)N[C@H](C(N)=O)C(C)C)[C@@H](C)O)[C@@H](C)O` [compound 18] has an Emax (CRF2R) of 97% and an Emax (CRF1R) of 100%.
`CC[C@H](C)[C@H](NC(=O)[C@@H](NC(=O)[C@H](CC(=O)O)NC(=O)[C@H](CC(C)C)NC(=O)[C@H](CC(C)C)NC(=O)[C@H](CC(C)C)NC(=O)[C@H](CCCNC(=N)N)NC(=O)[C@H](CC(N)=O)NC(=O)[C@H](CC(N)=O)NC(=O)[C@H](C)NC(=O)[C@H](C)NC(=O)[C@H](CCC(N)=O)NC(=O)[C@H](CCC(N)=O)NC(=O)[C@H](CCCCN)NC(=O)[C@H](CCC(=O)O)NC(=O)[C@H](CCCCN)NC(=O)[C@H](CCC(=O)O)NC(=O)[C@H](CCC(N)=O)NC(=O)[C@H](CCCCN)NC(=O)[C@H](CCC(=O)O)NC(=O)[C@@H](NC(=O)[C@H](CCC(=O)O)NC(=O)[C@@H](NC(=O)[C@H](CCSC)NC(=O)[C@H](CCCCN)NC(=O)[C@H](CCCNC(=N)N)NC(=O)[C@H](CC(C)C)NC(=O)[C@H](CC(C)C)NC(=O)[C@H](Cc1c[nH]c2ccccc12)NC(=O)[C@H](CC(C)C)NC(=O)[C@@H]1CCCN1C(=O)[C@H](CC(C)C)NC(=O)[C@H](CC(=O)O)NC(=O)[C@@H](NC(=O)[C@H](CO)NC(=O)[C@@H](NC(=O)[C@@H]1CCCN1C(=O)[C@@H]1CCCN1C(=O)CNC(=O)[C@@H]1CCC(=O)N1)[C@@H](C)CC)[C@@H](C)CC)[C@@H](C)CC)[C@@H](C)CC)[C@@H](C)O)C(N)=O` [compound 218] was tested, and the Emax (CRF2R) was 96% and the Emax (CRF1R) was 100%.
`CC[C@H](C)[C@H](NC(=O)[C@H](CCCNC(=N)N)NC(=O)[C@H](C)NC(=O)[C@H](CC(N)=O)NC(=O)[C@@H](NC(=O)[C@@H](NC(=O)[C@H](C)NC(=O)[C@H](CCC(N)=O)NC(=O)[C@H](CCC(N)=O)NC(=O)[C@H](CCCCN)NC(=O)[C@H](CCC(=O)O)NC(=O)[C@H](CCCCN)NC(=O)[C@H](CCC(=O)O)NC(=O)[C@H](CCC(N)=O)NC(=O)[C@H](CCCCN)NC(=O)[C@H](CCC(=O)O)NC(=O)[C@@H](NC(=O)[C@H](CCC(=O)O)NC(=O)[C@@H](NC(=O)[C@H](CCSC)NC(=O)[C@H](CCCCN)NC(=O)[C@H](CCCNC(=N)N)NC(=O)[C@H](CC(C)C)NC(=O)[C@H](CC(C)C)NC(=O)[C@H](Cc1ccc(O)cc1)NC(=O)[C@H](Cc1ccccc1)NC(=O)[C@@H]1CCCN1C(=O)[C@H](CC(C)C)NC(=O)[C@H](CC(=O)O)NC(=O)[C@@H](NC(=O)[C@H](CO)NC(=O)[C@@H](NC(=O)[C@@H]1CCCN1C(=O)[C@@H]1CCCN1C(=O)CNC(=O)[C@@H]1CCC(=O)N1)[C@@H](C)CC)[C@@H](C)CC)[C@@H](C)CC)[C@@H](C)CC)[C@@H](C)O)[C@@H](C)O)C(=O)N[C@@H](CC(C)C)C(=O)N[C@@H](C)C(=O)N[C@@H](CCCNC(=N)N)C(=O)N[C@H](C(N)=O)C(C)C` [compound 147] gave an EC50 (CRF2R) of 0.00675 µM, an Emax (CRF2R) of 94% and an EC50 (CRF1R) of 0.102 µM. For the same compound, the Emax (CRF1R) was 96%.
`CC[C@H](C)[C@H](NC(=O)[C@@H](NC(=O)[C@H](CC(=O)O)NC(=O)[C@H](CC(C)C)NC(=O)[C@H](CC(C)C)NC(=O)[C@H](CC(C)C)NC(=O)[C@H](CCCNC(=N)N)NC(=O)[C@H](CC(N)=O)NC(=O)[C@H](CC(N)=O)NC(=O)[C@H](C)NC(=O)[C@H](C)NC(=O)[C@H](CCC(N)=O)NC(=O)[C@H](CCC(N)=O)NC(=O)[C@H](CCCCN)NC(=O)[C@H](CCC(=O)O)NC(=O)[C@H](CCCCN)NC(=O)[C@H](CCC(=O)O)NC(=O)[C@H](CCC(N)=O)NC(=O)[C@H](CCCCN)NC(=O)[C@H](CCC(=O)O)NC(=O)[C@@H](NC(=O)[C@H](CCC(=O)O)NC(=O)[C@@H](NC(=O)[C@H](CCSC)NC(=O)[C@H](CCCCN)NC(=O)[C@H](CCCNC(=N)N)NC(=O)[C@H](CC(C)C)NC(=O)[C@H](CC(C)C)NC(=O)[C@H](Cc1ccc(O)cc1)NC(=O)[C@H](Cc1ccc(O)cc1)NC(=O)[C@@H]1CCCN1C(=O)[C@H](CC(C)C)NC(=O)[C@H](CC(=O)O)NC(=O)[C@@H](NC(=O)[C@H](CO)NC(=O)[C@@H](NC(=O)[C@@H]1CCCN1C(=O)[C@@H]1CCCN1C(=O)CNC(=O)[C@@H]1CCC(=O)N1)[C@@H](C)CC)[C@@H](C)CC)[C@@H](C)CC)[C@@H](C)CC)[C@@H](C)O)C(N)=O` [compound 40] was tested, and the EC50 (CRF2R) was 0.00695 µM, the Emax (CRF2R) was 93% and the EC50 (CRF1R) was 0.102 µM. For the same compound, the Emax (CRF1R) was 99%.
`CC[C@H](C)[C@H](NC(=O)[C@H](CCC(=O)O)NC(=O)[C@@H](NC(=O)[C@H](CCSC)NC(=O)[C@H](CCCCN)NC(=O)[C@H](CCCNC(=N)N)NC(=O)[C@H](CC(C)C)NC(=O)[C@H](CC(C)C)NC(=O)[C@H](CCC(N)=O)NC(=O)[C@H](Cc1ccccc1)NC(=O)[C@@H]1CCCN1C(=O)[C@H](CC(C)C)NC(=O)[C@H](CC(=O)O)NC(=O)[C@@H](NC(=O)[C@H](CO)NC(=O)[C@@H](NC(=O)[C@@H]1CCCN1C(=O)[C@@H]1CCCN1C(=O)CNC(=O)[C@@H]1CCC(=O)N1)[C@@H](C)CC)[C@@H](C)CC)[C@@H](C)CC)C(=O)N[C@@H](CCC(=O)O)C(=O)N[C@@H](CCCCN)C(=O)N[C@@H](CCC(N)=O)C(=O)N[C@@H](CCC(=O)O)C(=O)N[C@@H](CCCCN)C(=O)N[C@@H](CCC(=O)O)C(=O)N[C@@H](CCCCN)C(=O)N[C@@H](CCC(N)=O)C(=O)N[C@@H](CCC(N)=O)C(=O)N[C@@H](C)C(=O)N[C@H](C(=O)N[C@H](C(=O)N[C@@H](CC(N)=O)C(=O)N[C@@H](C)C(=O)N[C@@H](CCCNC(=N)N)C(=O)N[C@@H](CC(C)C)C(=O)N[C@@H](CC(C)C)C(=O)N[C@@H](C)C(=O)N[C@@H](CCCNC(=N)N)C(=O)N[C@H](C(N)=O)C(C)C)[C@@H](C)O)[C@@H](C)O` [compound 23] showed an Emax (CRF2R) of 100% and an Emax (CRF1R) of 82%.
Work on `CC[C@H](C)[C@H](NC(=O)[C@@H](NC(=O)[C@H](CC(=O)O)NC(=O)[C@H](CC(C)C)NC(=O)[C@H](CC(C)C)NC(=O)[C@H](CC(C)C)NC(=O)[C@H](CCCNC(=N)N)NC(=O)[C@H](CC(N)=O)NC(=O)[C@H](CC(N)=O)NC(=O)[C@H](C)NC(=O)[C@H](C)NC(=O)[C@H](CCC(N)=O)NC(=O)[C@H](CCC(N)=O)NC(=O)[C@H](CCCCN)NC(=O)[C@H](CCC(=O)O)NC(=O)[C@H](CCCCN)NC(=O)[C@H](CCC(=O)O)NC(=O)[C@H](CCC(N)=O)NC(=O)[C@H](CCCCN)NC(=O)[C@H](CCC(=O)O)NC(=O)[C@@H](NC(=O)[C@H](CCC(=O)O)NC(=O)[C@@H](NC(=O)[C@H](CCSC)NC(=O)[C@H](CCCCN)NC(=O)[C@H](CCCNC(=N)N)NC(=O)[C@H](CC(C)C)NC(=O)[C@H](CC(C)C)NC(=O)[C@H](Cc1ccccc1)NC(=O)[C@H](CCC(N)=O)NC(=O)[C@@H]1CCCN1C(=O)[C@H](CC(C)C)NC(=O)[C@H](CC(=O)O)NC(=O)[C@@H](NC(=O)[C@H](CO)NC(=O)[C@@H](NC(=O)[C@@H]1CCCN1C(=O)[C@@H]1CCCN1C(=O)CNC(=O)[C@@H]1CCC(=O)N1)[C@@H](C)CC)[C@@H](C)CC)[C@@H](C)CC)[C@@H](C)CC)[C@@H](C)O)C(N)=O` [compound 221] yielded an Emax (CRF2R) of 100% and an Emax (CRF1R) of 100%.

From patent US6936585B2, “Corticotropin releasing factor 2 receptor agonists” (priority 2002, dated 2005)
